{
  "source": "paper PMC4885489",
  "about": "“Prediction of Drug-Drug Interactions Arising from CYP3A induction Using a Physiologically Based Dynamic Model” (Drug Metabolism and Disposition, 2016)",
  "key": {"rCYP3A4": {"tested_on": "rCYP3A4", "assay": "Recombinant enzyme metabolism kinetics, rCYP3A4", "details": "Calculated from CLiv using the Retrograde model and fmCYP3A4 = 0.93"}, "CYP3A4": {"tested_on": "CYP3A4", "details": "cited from earlier work"}},
  "note": "Some compounds may have been tested in ways that are not shown here.",
  "data": [
    {"smiles": "CCC(=O)N(c1ccccc1)C1(COC)CCN(CCn2nnn(CC)c2=O)CC1", "values": [
      {"measurement": "rCYP3A4 CLint", "setting": "rCYP3A4", "result": 0.49, "unit": "µL/min/pmol"},
      {"measurement": "fm (fmCYP3A4), derived from in vitro data", "setting": "CYP3A4; verified using a clinical ketoconazole study, ref Labroo et al", "result": 0.93},
      {"measurement": "fm (fmCYP3A4), clinical data", "setting": "CYP3A4; wide range from clinical data, inhibitor or trial design not optimal", "result": "0.72-0.93"}
    ]}
  ]
}
